Assay results reported in article PMC3397393 (Chemical Communications (Cambridge, England), 2012).

The chains behind the UniProt entries cited, without tags or fusion partners. Residues count along the entry.
UniProt P05106, 27-788: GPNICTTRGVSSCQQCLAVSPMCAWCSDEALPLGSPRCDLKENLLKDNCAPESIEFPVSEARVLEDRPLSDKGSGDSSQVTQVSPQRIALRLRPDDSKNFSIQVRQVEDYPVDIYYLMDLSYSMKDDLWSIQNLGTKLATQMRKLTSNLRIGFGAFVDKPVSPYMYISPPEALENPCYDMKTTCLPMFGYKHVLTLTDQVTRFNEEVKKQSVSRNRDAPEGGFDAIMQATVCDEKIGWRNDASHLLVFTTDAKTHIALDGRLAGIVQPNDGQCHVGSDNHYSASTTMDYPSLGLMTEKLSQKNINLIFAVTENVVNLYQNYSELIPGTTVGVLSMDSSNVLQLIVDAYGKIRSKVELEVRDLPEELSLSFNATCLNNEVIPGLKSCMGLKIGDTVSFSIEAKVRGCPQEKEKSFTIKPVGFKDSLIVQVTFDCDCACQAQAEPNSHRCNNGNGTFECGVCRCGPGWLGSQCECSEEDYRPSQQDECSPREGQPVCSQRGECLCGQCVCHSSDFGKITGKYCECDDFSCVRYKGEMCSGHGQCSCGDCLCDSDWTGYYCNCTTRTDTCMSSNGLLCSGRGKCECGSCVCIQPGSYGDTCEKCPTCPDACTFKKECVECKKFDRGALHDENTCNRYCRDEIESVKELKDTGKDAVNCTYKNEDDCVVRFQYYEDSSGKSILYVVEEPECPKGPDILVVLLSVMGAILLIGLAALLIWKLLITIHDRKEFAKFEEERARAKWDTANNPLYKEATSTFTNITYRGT
UniProt P06756, 891-1048 partner limits assumed: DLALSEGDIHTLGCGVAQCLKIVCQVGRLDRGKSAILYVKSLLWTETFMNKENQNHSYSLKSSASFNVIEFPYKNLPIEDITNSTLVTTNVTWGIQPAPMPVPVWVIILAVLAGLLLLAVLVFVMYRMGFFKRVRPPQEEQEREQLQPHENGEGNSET
UniProt P06756, 31-889 limits assumed: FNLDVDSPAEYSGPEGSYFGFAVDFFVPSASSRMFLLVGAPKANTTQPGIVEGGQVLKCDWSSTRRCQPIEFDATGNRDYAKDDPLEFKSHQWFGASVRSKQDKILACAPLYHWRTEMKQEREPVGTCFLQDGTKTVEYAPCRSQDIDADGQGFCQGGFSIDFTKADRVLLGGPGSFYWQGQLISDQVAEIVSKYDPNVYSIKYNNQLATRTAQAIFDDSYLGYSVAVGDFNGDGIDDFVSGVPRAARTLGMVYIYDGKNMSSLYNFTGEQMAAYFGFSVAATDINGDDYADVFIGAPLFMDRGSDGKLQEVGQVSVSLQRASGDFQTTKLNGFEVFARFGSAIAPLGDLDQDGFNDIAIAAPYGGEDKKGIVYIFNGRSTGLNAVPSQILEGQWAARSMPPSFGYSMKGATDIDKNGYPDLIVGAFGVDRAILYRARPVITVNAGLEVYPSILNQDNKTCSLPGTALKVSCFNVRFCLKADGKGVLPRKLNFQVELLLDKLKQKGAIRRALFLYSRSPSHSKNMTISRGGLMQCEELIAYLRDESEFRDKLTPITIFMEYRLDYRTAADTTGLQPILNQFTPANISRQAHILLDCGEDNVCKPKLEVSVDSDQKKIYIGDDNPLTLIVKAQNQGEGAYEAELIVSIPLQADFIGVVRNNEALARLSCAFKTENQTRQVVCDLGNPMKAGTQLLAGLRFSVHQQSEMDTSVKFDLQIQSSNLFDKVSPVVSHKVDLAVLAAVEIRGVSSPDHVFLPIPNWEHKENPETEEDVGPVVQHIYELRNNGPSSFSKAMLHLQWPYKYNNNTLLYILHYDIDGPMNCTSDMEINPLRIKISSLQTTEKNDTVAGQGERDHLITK

Biological target: integrin αvβ3 (U87MG human glioblastoma cells) (Homo sapiens, UniProt P05106+P06756)
Assay: Flow cytometry analysis of FITC conjugates in U87MG cells
Format: cell-based
Details: 5 μg/mL; blocking with 2 μM of unconjugated c(RGDyK)

FITC-c(RGDyK) (head to tail)
uptake in U87MG cells after blocking the receptor: significantly reduced
